According to PubChem BioAssay AID651560 (Sanford-Burnham Center for Chemical Genomics, 2012):
The list shows a part of the results, in another mix than the full data. Activity calls are given as the source filed them.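 How the source made its calls: active means compounds that cut the enzyme signal by at least half of the control window in the single-dose screen; inactive means the rest.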

Chains of the proteins cited; added tags and fusions are not shown. Lines headed by an entry give the natural chain unless they say otherwise; changes in a name come on top.
UniProt P24666: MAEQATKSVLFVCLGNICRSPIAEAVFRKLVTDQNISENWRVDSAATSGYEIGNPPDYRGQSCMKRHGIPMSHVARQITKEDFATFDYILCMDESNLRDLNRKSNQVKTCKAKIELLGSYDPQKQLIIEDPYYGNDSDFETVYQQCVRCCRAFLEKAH

Biological target: Low molecular weight phosphotyrosine protein phosphatase (Homo sapiens) (UniProt P24666)
Assay: LMPTP phosphatase inhibitors, primary screen, biochemical, fluorescence intensity, uHTS (AID 651560);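 further: plate controls were DMSO wells with enzyme plus substrate for no effect and substrate without enzyme for full effect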
Settings: recombinant LMPTP-A, OMFP fluorogenic substrate, at 20 µM, hits give high values
In short: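 Material: LMPTP-A; amount: 0.625 nM enzyme; doses: single 20 µM dose; times: reaction 50 min, room temperature, dark; technique: fluorescence intensity of OMFP turnover product; benchmarks: no-enzyme and uninhibited controls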

Structure (SMILES)	inhibition
O=C(OC1CN2CCC1CC2)c1ccccc1 (stereo not given)	inactive: 1.28%
CCC(=O)N1C2C3N(C(=O)CC)C1C1N(C(=O)CC)C(C(N1C(=O)CC)N3C(=O)CC)N2C(=O)CC	inactive: 0.719%
COC(=O)c1cc2c(s1)N=C(c1ccccc1)N(C)P2(=O)N1CCOCC1 (stereo not given)	inactive: -1.39%
CC(=O)NC(SC(=S)N(CC(C)C)CC(C)C)C(Cl)(Cl)Cl (stereo not given)	inactive: -1.21%
Cc1ccc(OP(=O)(Nc2ccccn2)Oc2ccc(C)cc2)cc1	inactive: -1.12%
CC(NC(=O)COC(=O)C(O)(c1ccccc1)c1ccccc1)c1ccccc1 (stereo not given)	inactive: 0.75%
Cc1ccccc1OP(=O)(Nc1ccccn1)Oc1ccccc1C	inactive: 1.38%
O=c1c2cc([N+](=O)[O-])ccc2[nH]c2c([N+](=O)[O-])cc([N+](=O)[O-])cc12	inactive: 1.11%
CN(C)C(=O)Oc1noc2ccccc12	inactive: 0.365%
c1ccc(-c2nn[nH]n2)c(-c2nn[nH]n2)c1	inactive: -2.34%
Cc1ccc(NP(=O)(Oc2cccc(C)c2)Oc2cccc(C)c2)nc1	inactive: -1.72%
O=C(NC1CCS(=O)(=O)C1)NP(=S)(Oc1ccccc1)Oc1ccccc1 (stereo not given)	inactive: 0.771%
CCNC(=S)/N=C(\N)N[N+](=O)[O-]	inactive: 2.27%
O=P1(N(CCCl)CCCl)OCCC2CCCCN21 (stereo not given)	inactive: -12%
Cc1ccccc1CN(C)C(=O)COC(=O)C(O)(c1ccccc1)c1ccccc1	inactive: -0.09%
C[C@H]1OP(=O)(Oc2ccccc2)C[C@@H]2O[C@@H]21 (stereo not given in full)	inactive: 0.563%
C[C@@H]1C=CCP(=O)(Oc2ccccc2)O1 (stereo not given in full)	inactive: -1.28%
CC(=O)c1ccc(N2CC2c2ccncc2)cc1 (stereo not given)	inactive: -1.35%
N#C/C(=C\c1ccc(N(CCBr)CCBr)cc1)C(N)=O	inactive: -0.335%
COC(=O)C1(C)COP(=O)(NCc2ccccc2)OC1 (stereo not given)	inactive: -0.876%
CC(=O)Nc1ccc([As](=O)(O)O)c(O)c1	inactive: -0.221%
CC(=O)Nc1ccc(Oc2c([N+](=O)[O-])cc([N+](=O)[O-])cc2[N+](=O)[O-])cc1	inactive: -1.02%
O=P1(Nc2nc3ccc(Cl)cc3s2)COc2ccccc2O1 (stereo not given)	inactive: -1.52%
CCOc1ccc(C2=NCC(CBr)S2)cc1 (stereo not given)	inactive: 0.0213%
CC(C)(C)C(=O)NC(Sc1ccccc1)C(Cl)(Cl)Cl (stereo not given)	inactive: -0.412%

Structure (SMILES)	inhibition
CCc1cc(O)c([N+](=O)[O-])c(C)c1[N+](=O)[O-]	inactive: -8.41%
O=P(Nc1nccs1)(c1ccccc1)c1ccccc1	inactive: 0.495%
CC(C)C(=O)NC(Sc1ccccc1)C(Cl)(Cl)Cl (stereo not given)	inactive: 1.01%
c1nnnn1CCn1cnnn1	inactive: -6.94%
O=[As](O)(c1ccccc1)c1ccc(O)cc1	inactive: -0.631%
CC(=O)NC(SC(=S)N(C)C)C(Cl)(Cl)Cl (stereo not given)	inactive: -0.779%
O=[N+]([O-])c1ncn(CCn2cnc([N+](=O)[O-])n2)n1	inactive: -1.26%
O=[N+]([O-])c1ccc(O)c(/C=N/Nc2ccc([N+](=O)[O-])cc2[N+](=O)[O-])c1	inactive: 0.619%
O=C(OC1CN2CCC1CC2)c1cccc(Cl)c1 (stereo not given)	inactive: -2.67%
C(Cc1nn[nH]n1)Cc1nn[nH]n1	inactive: -1.05%
Nc1ccc([As](=O)(O)c2ccc([N+](=O)[O-])cc2)cc1	inactive: -1.17%
CN(C)C1(CNC(=O)c2ccc(Cl)c(S(N)(=O)=O)c2)CCCCC1	inactive: -0.981%
O=P(Nc1ccccn1)(c1ccc(Br)cc1)c1ccc(Br)cc1	inactive: 1.41%
COc1ccc(N)c([N+](=O)[O-])c1[N+](=O)[O-]	inactive: 2.15%
Nc1ccc(CCCCOc2ccccc2)cc1	inactive: -0.105%
O=P(Nc1nc2ccccc2s1)(c1ccccc1)c1ccccc1	inactive: -0.612%
C[C@H]1OP(=O)(Oc2ccccc2)[C@H](O)[C@H](O)[C@H]1N=[N+]=[N-] (stereo not given in full)	inactive: 0.123%
O=[N+]([O-])c1ncn(CCn2ncnc2[N+](=O)[O-])n1	inactive: -1.81%
CC(C)(C)C(=O)NC(Sc1ccncn1)C(Cl)(Cl)Cl (stereo not given)	inactive: 0.0345%
O=C(O)CNc1ccc([As](=O)(O)O)cc1	inactive: 1.44%
COC(=O)C1(C)COP(=O)(Nc2ccccc2)OC1 (stereo not given)	inactive: -1.58%
O=[N+]([O-])c1cccc(NC2=NCC(CBr)S2)c1 (stereo not given)	inactive: 1.77%
O=P1(N(CCCl)CCCl)OCCCS1 (stereo not given)	inactive: -3.2%
O=C(Nc1cc([As](=O)(O)O)ccc1O)c1ccccc1	inactive: -1.58%
CCN(/C(=N/P(=O)(N1CCOCC1)N1CCOCC1)N1CCOCC1)c1ccc(OC)cc1	inactive: -1.05%
